From ChEMBL document CHEMBL1154662, “alphavbeta3 Integrin-targeting Arg-Gly-Asp (RGD) peptidomimetics containing oligoethylene glycol (OEG) spacers” (J Med Chem, 2009)

Protein sequences, listed by entry. Tags and fused reporters are not part of them. Residues count along the entry.
UniProt P05106, 27-788 limits assumed: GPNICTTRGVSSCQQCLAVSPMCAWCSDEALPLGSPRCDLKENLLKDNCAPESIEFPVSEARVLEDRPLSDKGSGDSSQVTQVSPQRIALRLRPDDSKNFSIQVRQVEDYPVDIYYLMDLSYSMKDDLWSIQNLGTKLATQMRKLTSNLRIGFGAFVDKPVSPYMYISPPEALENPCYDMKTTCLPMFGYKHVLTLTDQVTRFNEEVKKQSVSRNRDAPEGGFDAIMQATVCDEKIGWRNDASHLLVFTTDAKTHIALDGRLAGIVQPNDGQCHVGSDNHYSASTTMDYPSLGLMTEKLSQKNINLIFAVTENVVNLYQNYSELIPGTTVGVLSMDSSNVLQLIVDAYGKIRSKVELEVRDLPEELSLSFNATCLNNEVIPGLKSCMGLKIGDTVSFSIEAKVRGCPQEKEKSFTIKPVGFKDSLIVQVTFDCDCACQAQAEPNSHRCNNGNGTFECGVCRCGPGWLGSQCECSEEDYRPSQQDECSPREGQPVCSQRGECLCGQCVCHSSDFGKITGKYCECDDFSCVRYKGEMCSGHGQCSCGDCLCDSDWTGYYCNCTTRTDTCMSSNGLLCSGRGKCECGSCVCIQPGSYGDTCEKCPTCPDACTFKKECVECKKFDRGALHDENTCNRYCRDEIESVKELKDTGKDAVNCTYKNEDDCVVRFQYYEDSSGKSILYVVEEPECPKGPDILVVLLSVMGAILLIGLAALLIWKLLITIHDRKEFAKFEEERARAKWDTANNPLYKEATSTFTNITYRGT
UniProt P08514, 32-887 limits assumed: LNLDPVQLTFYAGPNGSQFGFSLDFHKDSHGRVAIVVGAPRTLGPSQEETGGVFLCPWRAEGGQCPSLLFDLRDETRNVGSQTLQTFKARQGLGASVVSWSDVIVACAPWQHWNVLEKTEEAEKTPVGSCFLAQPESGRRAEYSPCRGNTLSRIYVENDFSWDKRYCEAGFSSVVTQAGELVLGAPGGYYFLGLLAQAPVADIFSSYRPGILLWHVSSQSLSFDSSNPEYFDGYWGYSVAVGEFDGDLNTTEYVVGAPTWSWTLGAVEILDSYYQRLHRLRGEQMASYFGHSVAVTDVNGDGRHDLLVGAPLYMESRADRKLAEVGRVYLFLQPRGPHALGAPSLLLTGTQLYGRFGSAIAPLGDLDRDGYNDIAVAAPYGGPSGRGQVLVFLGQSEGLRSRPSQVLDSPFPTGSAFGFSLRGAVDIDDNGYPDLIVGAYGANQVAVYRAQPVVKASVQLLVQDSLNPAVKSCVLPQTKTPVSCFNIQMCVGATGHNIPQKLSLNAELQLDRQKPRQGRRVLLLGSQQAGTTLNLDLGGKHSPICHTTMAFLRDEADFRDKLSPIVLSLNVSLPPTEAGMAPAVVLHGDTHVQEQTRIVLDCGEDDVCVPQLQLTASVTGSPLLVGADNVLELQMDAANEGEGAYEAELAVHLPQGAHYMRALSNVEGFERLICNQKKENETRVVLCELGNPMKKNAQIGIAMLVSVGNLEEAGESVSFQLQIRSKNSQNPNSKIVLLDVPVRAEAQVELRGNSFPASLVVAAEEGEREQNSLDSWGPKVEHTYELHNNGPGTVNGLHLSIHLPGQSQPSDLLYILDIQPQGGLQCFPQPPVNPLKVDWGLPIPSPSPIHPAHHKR
UniProt P08514, 891-1039 limits assumed: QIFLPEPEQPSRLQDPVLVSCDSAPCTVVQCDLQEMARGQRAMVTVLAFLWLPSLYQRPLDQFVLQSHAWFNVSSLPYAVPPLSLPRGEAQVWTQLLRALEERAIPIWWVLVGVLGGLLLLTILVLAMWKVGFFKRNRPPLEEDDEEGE

Biological target: Integrin alpha-IIb/beta-3 (Homo sapiens, UniProt P05106+P08514)
Test: Inhibition of human integrin alpha2b beta3 receptor by fibrinogen competitive binding assay
Assay type: protein-complex assay
How it was run: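 Platelet αIIbβ3, affinity-purified, adsorbed at 1 μg/mL in Tris buffer (2 mM CaCl2, 1 mM MgCl2 and MnCl2, pH 7.5) for 1 h at room temperature, then blocked with 1% albumin. Exposed 30 min to excess biotinylated fibrinogen with varied compound levels. Detection used anti-biotin–alkaline phosphatase and p-nitrophenyl phosphate, read at 405 nm. IC50 derived from at least two pooled dose-response experiments.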

Compound: N=C(N)NCCC[C@H](NC(=O)CN)C(=O)NCC(=O)N[C@@H](CC(=O)O)C(=O)N[C@@H](CO)C(=O)O
- IC50: 120 nM
